# Measurements as given in patent publication US11092596B2, “Material and method to screen proteasome stimulators” (Purdue Research Foundation, priority 2017, dated 2021).
# What was measured:
# [1] = target: T1, chymotrypsin-like activity of the 20S CP (Homo sapiens, UniProt P28074); assay: Kinetic assay, CT-L FRET reporter hydrolysis by purified 20S CP; type: biochemical; conditions: read-out: EC50 (concentration of half of the maximum stimulation) for 20S CP stimulation, dose response 0.78125-400 μM, triplicate
# [2] = target: T1, chymotrypsin-like activity of the 20S CP; assay: Kinetic assay, Suc-LLVY-AMC reporter hydrolysis by purified 20S CP; type: biochemical; conditions: 25 μM compound, triplicate; hit = at least 50% increase
# Procedure: (§1) Plate preparation for the kinetic assay was performed similarly for all assays. All 96-well plates contained the following in triplicate: reporter background, containing reporter only, and control wells, containing reporter and purified 20S CP. It was determined that each well will contain a total volume of 50 μL. To each well was added 40 μL of the coumarin or FRET reporters (in Tris-HCl, 50 mM, pH 7.7). To the reporter background wells was added 7.5 μL Tris-HCl and 2.5 μL of the solvent in which the compound of interest was dissolved or diluted. Similarly, to the control wells was added 2.5 μL Tris-HCl and 2.5 μL of the solvent in which the compound of interest was dissolved or diluted. […] Immediately prior to running the assay on the Synergy 4 Plate Reader, 5 μL purified 20S proteasome (90 nM in Tris-HCl) was added to the control and test wells.
# (§2) The Synergy 4 Plate Reader was set to heat the plate at 37° C. and read fluorescence every 2 min over a 40 min period. […]
# Sodium dodecyl sulfate (SDS) was used to test the effect stimulating the 20S proteasome has on the hydrolysis of the FRET reporters. The appropriate concentration of SDS to use in the kinetic assay was determined using the small chymotrypsin-like activity reporter, Suc-LLVY-AMC (SEQ ID NO: 4). […]
# The Synergy 4 Plate Reader was set to heat the plate at 37° C. and read fluorescence every 2 min over a 1 hr period. […]
# [3] = target: trypsin-like activity of the 20S CP (Homo sapiens, UniProt Q99436); assay: Kinetic assay, T-L FRET reporter hydrolysis by purified 20S CP; type: biochemical; conditions: 25 μM compound
# Procedure: as §1, §2
# Stimulation of the 20S proteasome with SDS was determined using both the coumarin and FRET reporters for the chymotrypsin-like and trypsin-like activities of the 20S CP. […] Immediately prior to running the assay on the Synergy 4 Plate Reader, 5 μL purified 20S proteasome (90 nM in Tris-HCl) was added to the control and test wells. […]
# [4] = target: caspase-like activity of the 20S CP (Homo sapiens, UniProt P28072); assay: Kinetic assay, CP-L FRET reporter hydrolysis by purified 20S CP; conditions: 25 μM compound
# Procedure: Plate preparation for the kinetic assay was performed similarly for all assays. All 96-well plates contained the following in triplicate: reporter background, containing reporter only, and control wells, containing reporter and purified 20S CP. It was determined that each well will contain a total volume of 50 μL. To each well was added 40 μL of the coumarin or FRET reporters (in Tris-HCl, 50 mM, pH 7.7). To the reporter background wells was added 7.5 μL Tris-HCl and 2.5 μL of the solvent in which the compound of interest was dissolved or diluted. Similarly, to the control wells was added 2.5 μL Tris-HCl and 2.5 μL of the solvent in which the compound of interest was dissolved or diluted. To the test wells was added 2.5 μL Tris-HCl and 2.5 μL of the compound of interest at a predetermined concentration. Immediately prior to running the assay on the Synergy 4 Plate Reader, 5 μL purified 20S proteasome (90 nM in Tris-HCl) was added to the control and test wells.
# as §2
# To each well was added 40 μL 20 μM CP-L FRET reporter (in Tris-HCl, 50 mM, pH 7.7). […] Immediately prior to running the assay on the Synergy 4 Plate Reader, 5 μL purified 20S proteasome (90 nM in Tris-HCl) was added to the control and test wells.
# [5] = target: chymotrypsin-like activity of the 26S proteasome (Homo sapiens, UniProt P28074); assay: Kinetic assay, CT-L FRET reporter with 26S proteasome; type: biochemical; conditions: 25 μM compound
# Procedure: Compounds 1, 2, and 3 were screened with the 26S proteasome in triplicate using the CT-L FRET reporter.
# To each well was added 40 μL 20 μM CT-L FRET reporter (in Tris-HCl, 50 mM, pH 7.7). To the reporter background wells was added 5 μL Tris-HCl and 5 μL 1:1 Tris-HCl:DMSO. Similarly, to the control wells was added 5 μL 1:1 Tris-HCl:DMSO. To the test wells was added 2.5 μL Tris-HCl and 2.5 μL of a 500 μM solution of the compound of interest in DMSO. […] Immediately prior to running the assay on the Synergy 4 Plate Reader, 5 μL purified 26S proteasome (62.5 μg/mL in Tris-HCl) was added to the control and test wells.
# The assay was performed using the Synergy 4 plate reader as described for the general screening kinetic assay procedure.
smiles,measurement,setting,value
O=c1cccc2n1CC1CC2CN(c2nc(N3CCCC3)nc(N3CCCC3)n2)C1 (stereo not drawn),EC50,[1],10 µM
same,primary hit status with the 4-amino acid reporter Suc-LLVY-AMC,[2],would not have been considered primary hits
same,effect on the trypsin-like activity of the 20S CP,[3],did not affect
same,effect on the caspase-like activity of the 20S CP,[4],did not affect
same,ability to stimulate the 26S proteasome's CT-L activity,[5],showed any stimulation ability
same,increase in 26S stimulation,[5],44%
